{
  "source": "patent US20030162222A1",
  "about": "“Method for selecting enzyme inhibitors” (priority 2000, published 2003)",
  "key": {"Src kinases": {"tested_on": "Src kinases", "details": "compared to ZAP70, Jak2, PKA kinases and EGF receptor kinase; Hanke et al. 1996; cited from earlier work"}, "[1]": {"tested_on": "tyrosine phosphorylation of cellular proteins, 32D cells expressing wt Bcr-Abl", "assay": "Tyrosine phosphorylation of cellular proteins from 32D cells expressing wt Bcr-Abl (PY99)", "format": "cell-based, murine", "details": "32D cells expressing Bcr-Abl wt; STI571 1 μM or PP1 25 μM, then lysis", "description": "(§1) The protein extracts thus obtained are then examined for tyrosine phosphorylation of cellular proteins. This is done using the antibody PY99, which specifically recognises tyrosine-phosphorylated proteins."}, "[2]": {"tested_on": "32D cells which express the mutant Bcr-Abl T315M", "assay": "Proliferation and survival of 32D cells expressing mutant Bcr-Abl T315M in the absence of interleukin-3", "format": "cell-based, murine", "details": "32D cells expressing Bcr-Abl T315M, no interleukin-3", "description": "(§2) FIG. 17 contains two diagrams showing the proliferation of STI571 or PP1-treated 32D cells, which express either wt Bcr-Abl or the mutant Bcr-Abl T315M, in the absence of interleukin-3 as a survival factor, the amount of proliferation being represented by an absolute number of cells;\n(§3) FIG. 18 contains two diagrams showing the survival of STI571-treated or PP1-treated 32D cells, which express either wt Bcr-Abl or the mutant Bcr-Abl T315M, in the absence of interleukin-3 as a survival factor, the amount of cell death being represented by the percentage of annexine-V-positive cells;\n(§4) In one example of the method of the invention either Bcr-Abl or a mutant previously identified as being resistant to kinase inhibitors PP1 and STI571, e.g. T315M, is expressed in a murine, interleukin-3-dependent cell line, 32D. Bcr-Abl is a constitutionally active tyrosine kinase which induces different forms of leukaemia in the animal model and humans.\n(§5) The example is carried out by transfixing 32D cells with a plasmid by electroporation, i.e. with the aid of a current pulse. The plasmid codes for either wt Bcr-Abl or e.g. for the mutant T315M. These plasmids additionally carry a resistance marker; in this case a puromycin resistance gene. Transfixed cells are therefore selected by means of puromycin.\n(§6) The cells are then characterised biologically. […]"}, "[3]": {"tested_on": "32D cells which express wt Bcr-Abl", "assay": "Proliferation and survival of 32D cells expressing wt Bcr-Abl in the absence of interleukin-3", "format": "cell-based, murine", "details": "32D cells expressing Bcr-Abl wt; no interleukin-3; PP1 25 μM or STI571 1 μM", "description": "as §2, §3, §4, §5, §6"}, "[4]": {"tested_on": "tyrosine phosphorylation of cellular proteins, 32D cells expressing mutant Bcr-Abl T315M", "assay": "Tyrosine phosphorylation of cellular proteins from 32D cells expressing Bcr-Abl T315M (PY99)", "format": "cell-based, murine", "details": "STI571 1 μM or PP1 25 μM, then lysis", "description": "as §1"}},
  "data": [
    {"smiles": "CC(C)(C)n1nc(-c2ccc(Cl)cc2)c2c(N)ncnc21", "note": "[PP2]", "values": [
      {"measurement": "selectivity for Src kinases", "setting": "Src kinases", "value": "high selectivity"}
    ]},
    {"smiles": "Cc1ccc(-c2nn(C(C)(C)C)c3ncnc(N)c23)cc1", "note": "[PP1]", "values": [
      {"measurement": "selectivity for Src kinases", "setting": "Src kinases", "value": "high selectivity"},
      {"measurement": "tyrosine phosphorylation of Bcr-Abl and other cellular proteins", "setting": "[1]", "value": "substantially uniform reduction"},
      {"measurement": "cells that die off", "setting": "[2]; PP1 25 μM", "value": "about 30%"},
      {"measurement": "survival of cells", "setting": "[2]; PP1 25 μM or STI571 1 μM", "value": "reduced cell survival rate"},
      {"measurement": "survival of cells", "setting": "[3]", "value": "prevent"},
      {"measurement": "phosphorylation of cellular proteins", "setting": "[4]", "value": "clear reduction in the phosphorylation of some cellular proteins"}
    ]}
  ]
}
